From PubChem BioAssay AID2451 (National Center for Advancing Translational Sciences (NCATS), 2010)
This is a selection; strong and weak results do not stand in their true shares. Some results for these compounds are left out of this collection, so the calls shown say nothing about other tests. Inconclusive results are not listed. The source made the active and inactive calls. Calls come from the whole dose curve; as a rule, active = well fitted inhibition curve with a large enough effect; inconclusive = small, poorly fitted or top-dose-only effect, or effect the other way; inactive = flat fitted curve, though single readings scatter.

Amino acid sequences for entries named in this document (tags omitted).
UniProt A8B2U2, whole entry: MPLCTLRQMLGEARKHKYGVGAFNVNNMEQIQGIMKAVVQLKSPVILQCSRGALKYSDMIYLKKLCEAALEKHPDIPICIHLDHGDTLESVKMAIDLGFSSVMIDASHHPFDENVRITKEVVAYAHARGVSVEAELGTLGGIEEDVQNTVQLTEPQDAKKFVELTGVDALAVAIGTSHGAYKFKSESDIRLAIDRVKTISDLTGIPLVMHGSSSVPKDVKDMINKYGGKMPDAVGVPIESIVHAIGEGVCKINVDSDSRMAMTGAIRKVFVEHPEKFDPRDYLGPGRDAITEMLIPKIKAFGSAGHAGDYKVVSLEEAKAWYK

What follows are compounds tested against Fructose-bisphosphate aldolase (Giardia intestinalis (strain ATCC 50803 / WB clone C6)) (UniProt A8B2U2) (assay: qHTS Assay for Inhibitors of Fructose-1,6-bisphosphate Aldolase from Giardia Lamblia). Details: purified Giardia FBPA; at 59.6 µM (top of the series).
% is set by controls: 0 for no effect and ±100 for the full control effect.
Note: nearly all actives have a fitted effect of over 55% in size.

Compound	activity, negative = inhibition
Cc1ccc(C(=O)NCC2(N3CCCCC3)CCCCC2)cc1	inactive: 4.98%
CCN(CC)CC(C)C(C)OC(=O)C(O)(c1ccccc1)c1ccccc1 (stereo not drawn)	inactive: -0.867%
COc1cc(SC)ccc1C(=O)NCC1(N(C)C)CCCCC1	inactive: 1.67%
CC(C)N1C(=O)CC2(CCN(CCOC(=O)C(O)(c3ccccc3)c3ccccc3)CC2)C1=O	inactive: 1.52%
CN1[C@@H]2CC[C@H]1CC(OC(=O)C(O)(c1ccccc1)c1ccccc1)C2 (stereo partly drawn)	inactive: -13.2%
O=C(NCC1(N2CCCCC2)CCCCC1)c1cc([N+](=O)[O-])ccc1Cl	inactive: 1.26%
COc1ccc(C(=O)NCC2(N(C)C)CCCCC2)cc1	inactive: 0.975%
CCN1CCCC(OC(=O)C2(O)c3ccccc3C=Cc3ccccc32)C1 (stereo not drawn)	inactive: 2.71%
Cc1cc(C(=O)NCC2(N3CCCCC3)CCCCC2)ccc1[N+](=O)[O-]	inactive: 5.76%
O=C(NCC1(N2CCCCC2)CCCCC1)c1cccc(Br)c1	inactive: 4.48%
O=C(NCC1(N2CCCCC2)CCCCC1)c1cc(F)c(F)cc1Cl	inactive: -6.48%
Cc1ccccc1C(=O)NCC1(N2CCCCC2)CCCCC1	inactive: 0.757%
CN(C)c1ccc(C(=O)NCC2(N(C)C)CCCCC2)cc1	inactive: 3.93%
CN(C)C1CCCC1OC(=O)C(O)(c1ccccc1)c1ccccc1 (stereo not drawn)	inactive: -7.3%
O=C(NCC1(N2CCCCC2)CCCCC1)c1cccc(Cl)c1	inactive: -8.29%
COc1cccc(C(=O)NCC2(N3CCCCC3)CCCCC2)c1	inactive: 0.201%
COc1ccc(Cl)cc1C(=O)NCC1(N(C)C)CCCCC1	inactive: 3.05%
COc1cc(C(=O)NCC2(N(C)C)CCCCC2)c([N+](=O)[O-])cc1OC	inactive: -8.86%
CN(C)C1(CNC(=O)c2ccc(Br)cc2)CCCCC1	inactive: 11.9%
CC(C)Oc1ccc(C(=O)NCC2(N(C)C)CCCCC2)cc1	inactive: -9.06%
CN(C)c1cccc(C(=O)NCC2(N(C)C)CCCCC2)c1	inactive: -11.1%
COc1ccc(Br)c(C(=O)NCC2(N3CCCCC3)CCCCC2)c1	inactive: -2.37%
O=C(OC1CN2CCC1CC2)C(CO)(c1ccccc1)c1ccccc1 (stereo not drawn)	inactive: -7.49%
